Measured values as given in patent US9487504B2, “Imidazolyl analogs as syk inhibitors” (Merck Sharp & Dohme Corp., priority 2012, dated 2016).

Target: recombinant human GST-Syk (Homo sapiens, UniProt P43405)
Assay: Homogeneous Time-Resolved Fluorescence (HTRF) assay for the recombinant human Syk enzyme
Details: read-out: rhSYK IC50, ATP 25 μM, 10-dose titration
Description: Syk inhibition may be determined using the following assay protocol:
Homogeneous Time-Resolved Fluorescence (HTRF) Assay for the Recombinant Human Syk Enzyme:
A recombinant GST-hSyk fusion protein was used to measure potency of compounds to inhibit human Syk activity. The recombinant human GST-Syk (Carna Biosciences #08-176) ([…]) was incubated with various concentrations of the inhibitor diluted in DMSO (0.1% final concentration) for 10 minutes at room temperature in 15 mM Tris-HCl (pH 7.5), 0.01% tween 20, 2 mM DTT in 384 well plate format. To initiate the reaction the biotinylated substrate peptide (250 nM final concentration) that contains the phosphorylation site for Syk was added with magnesium (5 mM final concentration) and ATP (25 μM final concentration). Final volume of the reaction was 10 μL. Phosphorylation of the peptide was allowed to proceed for 45 minutes at room temperature. To quench the reaction and detect the phosphorylated product, 2 nM of a Europium-anti-phosphotyrosine antibody (Perkin Elmer #AD0161) and 70 nM SA-APC (Perkin-Elmer #CR130-100) were added together in 15 mM Tris pH 7.5, 40 mM EDTA, 0.01% tween 20. Final volume of the quenching solution was 10 μL. The resulting HTRF signal was measured after 30 minutes on an EnVision (Perkin-Elmer) reader using a time-resolved fluorescence protocol. […]

IC50: 1 nM
SMILES: Cc1cc(Nc2nccc(C(F)(F)F)n2)cc(-n2cnc(C3(O)CCC(C(=O)O)CC3)c2)c1 (stereo not drawn) [Example 35, trans-4-hydroxy-4-[1-(3-methyl-5-[[4-(trifluoromethyl)pyrimidin-2-yl]amino}phenyl)-1H-imidazol-4-yl]cyclohexanecarboxylic acid]
